Test results as given in ChEMBL document CHEMBL1131586, “New antipsychotic agents with serotonin and dopamine antagonist properties based on a pyrrolo[2,1-b][1,3]benzothiazepine structure” (J Med Chem, 1998).

Protein sequences, listed by entry. Tags and fused reporters are not part of them.
UniProt P18901, whole entry: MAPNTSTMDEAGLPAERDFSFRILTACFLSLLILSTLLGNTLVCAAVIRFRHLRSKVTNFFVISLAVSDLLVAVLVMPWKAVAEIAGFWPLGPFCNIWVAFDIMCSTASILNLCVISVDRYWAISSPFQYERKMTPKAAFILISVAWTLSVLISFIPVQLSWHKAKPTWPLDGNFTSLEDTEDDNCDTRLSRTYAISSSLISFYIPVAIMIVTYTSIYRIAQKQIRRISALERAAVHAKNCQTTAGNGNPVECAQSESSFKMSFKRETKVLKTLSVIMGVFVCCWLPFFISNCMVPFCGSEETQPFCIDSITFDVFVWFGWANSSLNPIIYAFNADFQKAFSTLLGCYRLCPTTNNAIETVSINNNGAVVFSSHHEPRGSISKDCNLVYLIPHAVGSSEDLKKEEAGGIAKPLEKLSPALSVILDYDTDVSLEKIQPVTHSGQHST

Target: D(1A) dopamine receptor (Rattus norvegicus, UniProt P18901)

In the case of `CN1CCN(C2Cn3cccc3Sc3ccc(Cl)cc32)CC1` (stereo in doubt; (+)3b), the pKi was 7.80.

pKi: −log10 of the molar value.
